{
  "sequences": {"note": "Amino acid sequences for entries named in this document (tags omitted). A change or cut given only in a name is not applied to a line headed by its entry.", "UniProt P06239": "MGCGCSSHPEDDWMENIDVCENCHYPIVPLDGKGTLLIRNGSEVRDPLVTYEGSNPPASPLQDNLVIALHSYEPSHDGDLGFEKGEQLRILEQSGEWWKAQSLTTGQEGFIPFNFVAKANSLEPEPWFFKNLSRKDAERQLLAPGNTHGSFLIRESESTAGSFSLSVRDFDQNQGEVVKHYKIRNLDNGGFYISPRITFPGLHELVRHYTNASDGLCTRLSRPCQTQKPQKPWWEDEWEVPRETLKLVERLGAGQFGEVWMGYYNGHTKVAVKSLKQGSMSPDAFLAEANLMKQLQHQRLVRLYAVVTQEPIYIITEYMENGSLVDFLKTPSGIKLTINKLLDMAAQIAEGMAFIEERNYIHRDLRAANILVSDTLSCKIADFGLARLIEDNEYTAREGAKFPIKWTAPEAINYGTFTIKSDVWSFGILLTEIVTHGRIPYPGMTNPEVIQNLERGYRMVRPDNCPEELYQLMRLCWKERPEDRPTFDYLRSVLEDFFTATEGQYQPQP"},
  "source": "patent US20030148377A1",
  "about": "“Binding compounds and methods for identifying binding compounds” (priority 2000, published 2003)",
  "format_in_all_cases": "biochemical",
  "key": {"[1]": {"target": "T1, ZAP-70 (Homo sapiens, UniProt P43403)", "T1 construct": "made in house; host or cells: Sf9 cells (baculovirus)", "T1 sequence (P43403 1-619)": "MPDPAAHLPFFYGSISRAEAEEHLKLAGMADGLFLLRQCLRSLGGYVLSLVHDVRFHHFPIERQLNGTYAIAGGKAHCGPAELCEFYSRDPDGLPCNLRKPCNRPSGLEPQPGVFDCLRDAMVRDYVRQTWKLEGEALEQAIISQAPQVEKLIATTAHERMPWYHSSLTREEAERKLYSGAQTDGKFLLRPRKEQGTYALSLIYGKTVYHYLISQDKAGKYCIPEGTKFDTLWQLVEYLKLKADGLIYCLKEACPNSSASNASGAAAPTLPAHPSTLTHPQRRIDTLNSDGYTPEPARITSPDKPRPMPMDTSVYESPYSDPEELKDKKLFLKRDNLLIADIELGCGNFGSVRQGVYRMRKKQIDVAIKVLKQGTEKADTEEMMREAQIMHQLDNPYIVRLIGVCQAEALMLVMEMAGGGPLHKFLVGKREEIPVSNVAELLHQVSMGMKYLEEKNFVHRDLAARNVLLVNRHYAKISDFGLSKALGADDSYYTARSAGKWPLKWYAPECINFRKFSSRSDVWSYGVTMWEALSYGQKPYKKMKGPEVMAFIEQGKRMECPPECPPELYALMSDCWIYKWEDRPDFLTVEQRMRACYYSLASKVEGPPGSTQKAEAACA", "assay": "Inhibition of ZAP-70 phosphorylation of peptide 1 (phosphocellulose assay, Lineweaver-Burke plot)", "settings": "at 10 μM inhibitor; peptide 1 (10 μM) as substrate; FIG. 1B", "method": "FIG. 1B: ZAP-70 was also assayed for its ability to phosphorylate peptide 1 (10 μM) in the presence of 0, 10, or 50 μM of peptide 4 (SEQ ID NO: 9) or peptide 5 (SEQ ID NO: 10). Peptide phosphorylation was determined by spotting the reaction mixture on phosphocellulose and washing away the ^32P-ATP with a phosphate buffer. The polylysine tail of peptide 1 facilitates retention on the phosphocellulose (Songyang et al., 1996). The data are presented as the percentage of the activity present in the absence of inhibitory peptides. […]\n(§1) Synthetic peptides, tubulin, or GST-band III (construct kindly provided by A. Weiss, University of California, San Francisco) (Zhao and Weiss, 1996) were phosphorylated by ZAP-70-GST-fused protein in the presence or absence of the indicated amount of inhibitory peptides in the kinase buffer (10 mM MnCl2, 50 mM Tris [pH 7.4], 1 mM DTT), 100 μM ATP, and 5 μCi [γ-^32P]ATP for 5 min (or 10 min for GST-band-III) at 30° C. The amount of radioactivity incorporated into substrate peptide was determined using the phosphocellulose assay. […] Phosphorylated tubulin, GST-band III, and myelin basic protein were separated on SDS-PAGE, visualized by autoradiography, and quantitated using a molecular imager (Bio-Rad, Hercules, Calif.)."}, "[2]": {"target": "T1, ZAP-70", "assay": "Inhibition of tubulin phosphorylation by ZAP-70", "settings": "at concentrations below 20 μM; tubulin (5 μM) as substrate; FIG. 1D", "method": "FIG. 1A: A glutathione-S-transferase chimera of ZAP-70 was purified from Sf9 cells and assayed for its ability to phosphorylate tubulin in the presence of 0, 50, or 100 μM of peptide 1 (SEQ ID NO: 5) or peptide 2 (SEQ ID NO: 6). The assay was carried out in kinase buffer (5 mM MnCl2, 5 mM MgCl2, 25 mM Tris [pH 7.4]), 50 μM ATP, and […] [γ-^32P]ATP for 5 min at 30° C. ^32P-phosphorylated tubulin was separated on SDS-PAGE, visualized by autoradiography (inset), and quantitated using a molecular imager (Bio-Rad).\nFIG. 1D: The ZAP-70 Tyr-kinase assay was as described above, using tubulin (5 μM) as substrate. […]\nas §1"}, "[3]": {"target": "T2, Myc-tagged Syk kinase (Mus musculus, UniProt P48025)", "T2 construct": "made in house; host or cells: COS-7 cells (plasmid pEBM-Syk-myc)", "assay": "Inhibition of GST-band III phosphorylation by Syk", "settings": "GST-band III (3.4 μM) as substrate; FIG. 1F", "method": "(§2) FIG. 1F: Myc-tagged Syk kinase was expressed and purified from COS-7 cells. GST-band III (Km concentration; 0.7 μM for ZAP-70 and 3.4 μM for Syk) was phosphorylated by ZAP-70 (closed circle) or myc-tagged Syk (open circle) in the presence of the indicated amount of peptide 4 for 10 min at 30° C. Phosphorylated tubulin, myelin basic protein, and GST-band III were separated on SDS-PAGE, visualized by autoradiography and quantitated as described in the legend for FIG. 1B. Error bars represent the standard error from 3-4 independent experiments.\nas §1, with “assay. Lck-GST-fused protein was purified from Sf9 cells.” for “assay.”"}, "[4]": {"target": "T3, Lck-GST-fused protein (Homo sapiens, UniProt P06239)", "T3 construct": "made in house; host or cells: Sf9 cells", "assay": "Inhibition of myelin basic protein phosphorylation by Lck", "settings": "even at 100 μM; myelin basic protein (5 μM) as substrate; FIG. 1E", "method": "FIG. 1E: A glutathione-S-transferase chimera of Lck was purified from Sf9 cells and assayed for the ability to phosphorylate myelin basic protein (5 μM) in the presence or absence of the same three peptides as used in FIG. 1D. The assay was carried out for 5 min at 30° C.\nas §1, with “assay. Lck-GST-fused protein was purified from Sf9 cells. Myelin basic protein was phosphorylated by Lck-GST-fused protein in the presence or absence of inhibitory peptides in the kinase buffer (5 mM MnCl2, 5 mM MgCl2, 25 mM Tris [pH 7.4]), 50 μM ATP, and 5 μCi [γ-^32P]ATP for 5 min at 30° C.” for “assay.”"}, "[5]": {"target": "T1, ZAP-70", "assay": "Inhibition of GST-band III phosphorylation by ZAP-70", "settings": "GST-band III (0.7 μM) as substrate; dose-dependent; FIG. 1F", "method": "as §2\nas §1, with “assay. Lck-GST-fused protein was purified from Sf9 cells.” for “assay.”"}},
  "data": [
    {"compound": "CC[C@H](C)[C@H](NC(=O)[C@H](CC(C)C)NC(=O)[C@@H](N)CCCCN)C(=O)N[C@@H](CC(C)C)C(=O)N[C@@H](Cc1ccccc1)C(=O)N[C@@H](CC(C)C)C(=O)N[C@@H](CC(C)C)C(=O)N[C@@H](CC(C)C)C(=O)N[C@@H](CC(C)C)C(=O)O", "note": "[peptide 4]", "values": [
      {"measurement": "inhibition at 10 µM", "setting": "[1]", "result": 70, "unit": "%"},
      {"measurement": "inhibition of ZAP-70", "setting": "[2]", "result": "more than 50%"},
      {"measurement": "inhibition of Syk activity (in words)", "setting": "[3]", "result": "not Syk"},
      {"measurement": "effect on Lck Tyr kinase activity (in words)", "setting": "[4]", "result": "only a modest effect"},
      {"measurement": "inhibition of ZAP-70 activity (in words)", "setting": "[5]", "result": "significantly inhibited"}
    ]}
  ]
}
